Measured melting point values of organic chemicals

From the experimental data distributed with OPERA 2.9.

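The numbers are reported measurements, compiled and curated for the OPERA QSAR suite. One number stands for a compound and property, with no spread given. Method, purity and exact conditions of the single measurements are not given. A value may pool stereoisomers or salt forms, and the file does not say which form was measured. Unmarked limits or estimates from the upstream databases cannot be ruled out.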

Melting points are in °C.

SMILES	melting point (°C)
COc1ccccc1-c1ccccc1C(=O)O	150
COc1ncc2nccnc2n1	150
Cc1c(C(=O)O)sc2nc[nH]c(=O)c12	250
O=C(CCl)Nc1nc2ccc(F)cc2s1	171
Cn1c(CC#N)nc2ccccc21	130
CC(C)C(Br)C(=O)c1ccccc1 (stereo not given)	50
O=C(O)c1cccc2[nH]ncc12	286
Nc1cc2c(cc1Cl)NC(=O)CO2	228
O=C(O)COc1cccc(C(F)(F)F)c1	86
CC(=O)C[C@H]1[C@@H](C(=O)O)C1(C)C (stereo in doubt)	55.75
O=C(O)c1cccc2c3c([nH]c12)CCCC3	191
C[C@]12C=CC[C@@]1(C)[C@]1(C)C=C[C@@]2(C)C1	32
CCOc1ccc(Br)cc1S(=O)(=O)Cl	110
O=c1cc(CCl)c2c(ccc3ccccc32)o1	120
O=C(Cn1c(Cl)nc2ccccc21)c1ccccc1	169
O=C(O)CNS(=O)(=O)Cc1ccccc1	154
CC(C)CN1CC(C(=O)O)CC1=O (stereo not given)	84
COc1cccc(C(N)=O)c1O	156
CCn1nc(C(C)C)cc1C(=O)O	116
O=C(O)c1ccccc1OCc1ccccc1Cl	120
O=C(O)C1CC(=O)N(c2ccccc2)C1 (stereo not given)	192
NNC(=O)C1COc2ccccc2O1 (stereo not given)	112
O=C1CSC(=S)N1c1ccc(F)cc1	138
Cc1sc2nc(-c3ccccc3)nc(Cl)c2c1C	158
CCCCCCCCCCCCCC(=O)OCCCCCCCCCCCC	38.5
Nc1nc2cc(Cl)ccc2s1	198
O=C(O)CSCCc1ccccc1	57
CN1CCc2nc(N)sc2C1	169
COc1ccccc1C(=O)Nc1ccc(O)cc1	173
O=C(O)Cn1nnc2ccccc2c1=O	148
CC(=O)c1ccc(OCC(=O)N2CCOCC2)cc1	57
C=CCc1cc(OCC)ccc1O	136
O=c1[nH]cc(S(=O)(=O)Cl)c(=O)[nH]1	156
Fc1ccccc1Nc1n[nH]c(=S)s1	171
COc1ccc(OCC2CO2)cc1 (stereo not given)	46.5
COC(=O)c1c(N)sc(C)c1C	125
O=S(=O)(Cl)C1=Cc2ccccc2CC1	60
CCOC(=O)c1sc(SC)nc1N	81
CCc1ccccc1OCC(=O)O	125
Nc1ccc(N2CCOCC2)cc1C(=O)O	236
O=C(O)CNC(=O)c1ccccc1Br	139
O=C(O)CCc1nc(=O)c2ccccc2[nH]1	240
FC(OC(F)(F)C(F)(OC(F)(F)C(F)(OC(F)(F)C(F)(OC(F)(F)C(F)(OC(F)(F)C(F)(OC(F)(F)C(F)(F)C(F)(F)F)C(F)(F)F)C(F)(F)F)C(F)(F)F)C(F)(F)F)C(F)(F)F)C(F)(F)F (stereo not given)	-72
Cc1ccc(S(N)(=O)=O)c(C)c1	140

Excerpt, the final 5 entries:

SMILES	melting point (°C)
Nc1ccc(N2CCOCC2)cc1C(=O)O	236
O=C(O)CNC(=O)c1ccccc1Br	139
O=C(O)CCc1nc(=O)c2ccccc2[nH]1	240
FC(OC(F)(F)C(F)(OC(F)(F)C(F)(OC(F)(F)C(F)(OC(F)(F)C(F)(OC(F)(F)C(F)(OC(F)(F)C(F)(F)C(F)(F)F)C(F)(F)F)C(F)(F)F)C(F)(F)F)C(F)(F)F)C(F)(F)F)C(F)(F)F (stereo not given)	-72
Cc1ccc(S(N)(=O)=O)c(C)c1	140